The record followed here is article PMC2895947 (Neuropsychopharmacology : official publication of the …, 2010).

This data set is described as follows: THC blood and brain levels, single bolus vs cumulative dosing. The note with it: THC 10 mg/kg cumulative; C57Bl/6J mice; mean ± SEM. The data set is classed as in vivo.

For the molecule `CCCCCc1cc(O)c2c(c1)OC(C)(C)[C@@H]1CCC(C)=C[C@@H]21` [THC, Δ^9-tetrahydrocannabinol], the “Brain THC level, cumulative dosing” value was 225 ± 32 ng/mL.
